Measured values published in ChEMBL document CHEMBL4613246, “Antimycobacterial Rufomycin Analogues from Streptomyces atratus Strain MJM3502” (J Nat Prod, 2020).

Columns and labels:
[1] = system: Mycobacteroides abscessus; test: Antimycobacterial activity against Mycobacterium abscessus ATCC 19977 assessed as reduction in microbial growth after 7 days by alamar blue assay; assay type: functional; details: ATCC 19977, 168 h
Vero = test: cells; details: Chlorocebus sabaeus

SMILES	MIC [1] [µM]	IC50 (Vero) [µM]
C=CC(C)(C)n1cc(C[C@@H]2NC(=O)[C@H](C/C=C/C)NC(=O)[C@H](CC(C)C)NC(=O)[C@H](CC(C)C)N(C)C(=O)[C@H](C)NC(=O)[C@H](Cc3ccc(O)c([N+](=O)[O-])c3)NC(=O)[C@H](CC(C)C)N(C)C2=O)c2ccccc21	> 10	100
C=CC(C)(C)n1cc(C[C@@H]2NC(=O)[C@H](CC(C)C)N(C)C2=O)c2ccccc21	> 10	> 100
C=CC(C)(C)n1cc(C[C@@H]2NC(=O)[C@H](C/C=C/C)NC(=O)[C@H](CC(C)C)NC(=O)[C@H](CC(C)C)N(C)C(=O)[C@H](C)NC(=O)[C@H](Cc3ccc(O)cc3)NC(=O)[C@H](CC(C)C)N(C)C2=O)c2ccccc21	> 10	89
C/C=C/C[C@@H]1NC(=O)[C@H](CC(C)C)NC(=O)[C@H](CC(C)C)N(C)C(=O)[C@H](C)NC(=O)[C@H](Cc2ccc(O)c([N+](=O)[O-])c2)NC(=O)[C@H](CC(C)C)N(C)C(=O)[C@H](Cc2cn(C(C)(C)[C@H]3CO3)c3ccccc23)NC1=O	1.9	94
C=CC(C)(C)n1cc(C[C@@H]2NC(=O)[C@H](C/C=C/C)NC(=O)[C@H](CC(C)C)NC(=O)[C@H](C[C@H](C)CO)N(C)C(=O)[C@H](C)NC(=O)[C@H](Cc3ccc(O)c([N+](=O)[O-])c3)NC(=O)[C@H](CC(C)C)N(C)C2=O)c2ccccc21	9.3	> 100
C/C=C/C[C@@H]1NC(=O)[C@H](CC(C)C)NC(=O)[C@H](C[C@H](C)CO)N(C)C(=O)[C@H](C)NC(=O)[C@H](Cc2ccc(O)c([N+](=O)[O-])c2)NC(=O)[C@H](CC(C)C)N(C)C(=O)[C@H](Cc2cn(C(C)(C)[C@H]3CO3)c3ccccc23)NC1=O		> 100
C/C=C/C[C@@H]1NC(=O)[C@H](CC(C)C)NC(=O)[C@H](C[C@@H](C)CO)N(C)C(=O)[C@H](C)NC(=O)[C@H](Cc2ccc(O)c([N+](=O)[O-])c2)NC(=O)[C@H](CC(C)C)N(C)C(=O)[C@H](Cc2cn(C(C)(C)[C@H]3CO3)c3ccccc23)NC1=O		> 100
C/C=C/C[C@@H]1NC(=O)[C@H](CC(C)C)NC(=O)[C@H](CC(C)C)N(C)C(=O)[C@H](C)NC(=O)[C@H](Cc2ccc(O)c([N+](=O)[O-])c2)NC(=O)[C@H](CC(C)C)NC(=O)[C@H](Cc2cn(C(C)(C)[C@H]3CO3)c3ccccc23)NC1=O	> 10	> 100
C/C=C/C[C@@H]1NC(=O)[C@H](CC(C)C)NC(=O)[C@H](CC(C)C(OC)OC)N(C)C(=O)[C@H](C)NC(=O)[C@H](Cc2ccc(O)c([N+](=O)[O-])c2)NC(=O)[C@H](CC(C)C)N(C)C(=O)[C@H](Cc2cn(C(C)(C)[C@H]3CO3)c3ccccc23)NC1=O (stereo partly drawn)	2.2	> 10
C/C=C/C[C@@H]1NC(=O)[C@H](CC(C)C)NC(=O)[C@H](CC(C)C)N(C)C(=O)[C@H](C)NC(=O)[C@H](Cc2ccc(O)c([N+](=O)[O-])c2)NC(=O)[C@H](CC(C)C)N(C)C(=O)[C@H](Cc2cn(C(C)(C)[C@H](O)CCl)c3ccccc23)NC1=O	2.3	> 100
